By UniProt entry, the sequences of proteins in these tests, tags left out. Residues count along the entry.
UniProt P48730, whole entry: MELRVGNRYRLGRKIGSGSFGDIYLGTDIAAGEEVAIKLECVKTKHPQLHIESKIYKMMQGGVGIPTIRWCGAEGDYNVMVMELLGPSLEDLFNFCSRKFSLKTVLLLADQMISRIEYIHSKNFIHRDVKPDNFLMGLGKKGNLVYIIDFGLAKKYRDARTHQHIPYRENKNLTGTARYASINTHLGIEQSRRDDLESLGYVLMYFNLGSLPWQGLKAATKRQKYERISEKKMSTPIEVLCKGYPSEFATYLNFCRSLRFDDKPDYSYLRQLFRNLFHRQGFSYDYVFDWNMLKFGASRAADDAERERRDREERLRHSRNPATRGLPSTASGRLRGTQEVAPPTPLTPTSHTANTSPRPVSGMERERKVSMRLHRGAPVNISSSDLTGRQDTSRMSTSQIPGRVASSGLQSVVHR
UniProt O96013, whole entry: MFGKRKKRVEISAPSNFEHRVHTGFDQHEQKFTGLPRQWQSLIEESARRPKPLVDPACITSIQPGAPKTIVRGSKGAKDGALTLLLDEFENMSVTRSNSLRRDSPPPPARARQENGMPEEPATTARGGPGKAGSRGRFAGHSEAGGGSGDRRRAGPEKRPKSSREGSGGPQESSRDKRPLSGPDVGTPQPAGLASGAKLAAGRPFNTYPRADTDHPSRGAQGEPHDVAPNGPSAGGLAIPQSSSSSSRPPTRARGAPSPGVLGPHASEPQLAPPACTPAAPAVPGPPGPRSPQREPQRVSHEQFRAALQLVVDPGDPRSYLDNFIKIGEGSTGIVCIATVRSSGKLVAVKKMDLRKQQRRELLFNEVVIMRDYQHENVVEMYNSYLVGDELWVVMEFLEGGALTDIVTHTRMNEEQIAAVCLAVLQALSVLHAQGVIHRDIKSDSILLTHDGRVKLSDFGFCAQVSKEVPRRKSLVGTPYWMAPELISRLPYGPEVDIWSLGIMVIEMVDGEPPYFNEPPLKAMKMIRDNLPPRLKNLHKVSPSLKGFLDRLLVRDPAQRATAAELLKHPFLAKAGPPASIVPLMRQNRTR
UniProt P22830, 55-423 limits assumed: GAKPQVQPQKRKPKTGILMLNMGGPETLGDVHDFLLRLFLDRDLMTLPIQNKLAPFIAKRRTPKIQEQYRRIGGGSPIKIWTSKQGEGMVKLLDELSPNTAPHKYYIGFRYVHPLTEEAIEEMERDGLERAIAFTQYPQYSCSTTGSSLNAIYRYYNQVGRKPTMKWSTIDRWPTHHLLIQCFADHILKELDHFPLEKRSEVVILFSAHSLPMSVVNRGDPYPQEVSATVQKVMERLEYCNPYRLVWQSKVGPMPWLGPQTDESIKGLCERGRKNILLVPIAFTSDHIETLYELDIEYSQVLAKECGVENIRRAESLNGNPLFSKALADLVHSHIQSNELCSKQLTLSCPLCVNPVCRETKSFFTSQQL
UniProt O14936, whole entry: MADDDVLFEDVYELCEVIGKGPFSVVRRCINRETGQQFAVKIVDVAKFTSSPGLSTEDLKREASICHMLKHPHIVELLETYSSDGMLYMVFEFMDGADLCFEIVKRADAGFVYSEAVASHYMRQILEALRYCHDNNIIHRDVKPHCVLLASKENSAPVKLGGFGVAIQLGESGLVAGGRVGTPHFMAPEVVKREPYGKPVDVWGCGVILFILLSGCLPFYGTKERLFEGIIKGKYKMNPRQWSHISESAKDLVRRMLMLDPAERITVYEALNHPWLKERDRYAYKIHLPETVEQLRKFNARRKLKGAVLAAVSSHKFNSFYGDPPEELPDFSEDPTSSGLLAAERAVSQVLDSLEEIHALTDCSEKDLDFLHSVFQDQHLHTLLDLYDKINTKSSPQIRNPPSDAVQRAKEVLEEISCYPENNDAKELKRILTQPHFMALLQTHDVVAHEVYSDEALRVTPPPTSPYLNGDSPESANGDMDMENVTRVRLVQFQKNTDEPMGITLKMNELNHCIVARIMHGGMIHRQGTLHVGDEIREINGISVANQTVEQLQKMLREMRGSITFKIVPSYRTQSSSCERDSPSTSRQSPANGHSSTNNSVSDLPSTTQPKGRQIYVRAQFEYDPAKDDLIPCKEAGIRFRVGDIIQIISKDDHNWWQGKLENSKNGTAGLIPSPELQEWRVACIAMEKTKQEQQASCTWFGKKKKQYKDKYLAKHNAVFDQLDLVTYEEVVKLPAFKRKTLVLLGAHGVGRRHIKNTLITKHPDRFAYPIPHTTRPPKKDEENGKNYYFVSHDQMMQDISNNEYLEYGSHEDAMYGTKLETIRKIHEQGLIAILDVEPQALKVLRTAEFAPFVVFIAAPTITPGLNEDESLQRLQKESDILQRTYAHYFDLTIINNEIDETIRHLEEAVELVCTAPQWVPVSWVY
UniProt Q92630, whole entry: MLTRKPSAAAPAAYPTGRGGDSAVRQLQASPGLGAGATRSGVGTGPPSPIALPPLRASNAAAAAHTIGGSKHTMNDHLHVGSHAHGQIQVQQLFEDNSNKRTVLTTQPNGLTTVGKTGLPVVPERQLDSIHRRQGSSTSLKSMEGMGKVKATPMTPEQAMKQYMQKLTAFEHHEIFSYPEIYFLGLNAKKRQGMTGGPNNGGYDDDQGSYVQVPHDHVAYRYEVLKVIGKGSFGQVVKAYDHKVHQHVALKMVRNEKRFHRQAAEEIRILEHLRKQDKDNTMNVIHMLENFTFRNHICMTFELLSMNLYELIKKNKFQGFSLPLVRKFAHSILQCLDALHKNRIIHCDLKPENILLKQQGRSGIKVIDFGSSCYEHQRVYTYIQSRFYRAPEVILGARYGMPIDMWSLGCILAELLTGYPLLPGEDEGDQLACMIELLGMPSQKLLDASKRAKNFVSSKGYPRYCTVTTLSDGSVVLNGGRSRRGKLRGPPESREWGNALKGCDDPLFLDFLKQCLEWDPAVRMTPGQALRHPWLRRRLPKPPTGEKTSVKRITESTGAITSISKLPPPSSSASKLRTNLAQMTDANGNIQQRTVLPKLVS
UniProt P49674, whole entry: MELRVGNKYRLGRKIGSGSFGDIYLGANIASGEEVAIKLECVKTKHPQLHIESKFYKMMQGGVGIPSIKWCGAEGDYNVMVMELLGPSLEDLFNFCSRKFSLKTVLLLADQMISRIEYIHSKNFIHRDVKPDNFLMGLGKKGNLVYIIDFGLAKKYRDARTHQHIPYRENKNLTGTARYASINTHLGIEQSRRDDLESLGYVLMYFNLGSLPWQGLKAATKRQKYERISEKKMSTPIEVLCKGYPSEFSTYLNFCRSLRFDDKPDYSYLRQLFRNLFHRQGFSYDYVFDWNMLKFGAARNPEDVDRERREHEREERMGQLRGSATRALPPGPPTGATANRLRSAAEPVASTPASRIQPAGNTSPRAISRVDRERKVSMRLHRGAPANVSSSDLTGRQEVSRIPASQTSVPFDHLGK
UniProt Q8TF76, whole entry: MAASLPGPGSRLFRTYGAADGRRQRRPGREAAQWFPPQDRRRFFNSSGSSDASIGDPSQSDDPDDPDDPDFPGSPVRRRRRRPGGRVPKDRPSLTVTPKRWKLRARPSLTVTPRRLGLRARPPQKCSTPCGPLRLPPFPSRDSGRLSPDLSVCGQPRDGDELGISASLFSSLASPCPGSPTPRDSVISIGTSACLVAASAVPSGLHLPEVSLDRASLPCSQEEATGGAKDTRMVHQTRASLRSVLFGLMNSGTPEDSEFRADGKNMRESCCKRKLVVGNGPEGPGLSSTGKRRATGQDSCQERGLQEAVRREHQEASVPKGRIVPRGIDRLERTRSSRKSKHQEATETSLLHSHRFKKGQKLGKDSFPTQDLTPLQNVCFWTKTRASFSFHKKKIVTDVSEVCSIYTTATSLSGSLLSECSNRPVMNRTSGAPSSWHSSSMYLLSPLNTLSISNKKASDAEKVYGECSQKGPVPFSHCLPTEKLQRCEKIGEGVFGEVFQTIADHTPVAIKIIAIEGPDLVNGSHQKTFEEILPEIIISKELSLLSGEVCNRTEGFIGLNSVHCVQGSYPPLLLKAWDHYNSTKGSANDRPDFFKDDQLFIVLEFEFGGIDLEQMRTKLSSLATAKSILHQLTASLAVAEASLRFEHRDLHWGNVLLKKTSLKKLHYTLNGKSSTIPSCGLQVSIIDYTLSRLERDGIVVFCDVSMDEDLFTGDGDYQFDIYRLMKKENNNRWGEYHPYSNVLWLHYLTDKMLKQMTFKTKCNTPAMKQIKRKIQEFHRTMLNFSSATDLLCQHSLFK
UniProt Q8IU85, whole entry: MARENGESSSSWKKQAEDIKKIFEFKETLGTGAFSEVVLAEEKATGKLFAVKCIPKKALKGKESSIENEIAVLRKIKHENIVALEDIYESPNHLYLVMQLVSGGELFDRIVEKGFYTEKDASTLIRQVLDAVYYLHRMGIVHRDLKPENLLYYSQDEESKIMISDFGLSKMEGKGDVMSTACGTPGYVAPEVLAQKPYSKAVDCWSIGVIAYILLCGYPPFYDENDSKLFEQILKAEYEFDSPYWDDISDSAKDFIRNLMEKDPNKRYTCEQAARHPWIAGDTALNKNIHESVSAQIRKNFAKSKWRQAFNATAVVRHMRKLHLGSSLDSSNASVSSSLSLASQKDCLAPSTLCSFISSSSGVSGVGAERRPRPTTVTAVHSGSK
UniProt Q96SB4, whole entry: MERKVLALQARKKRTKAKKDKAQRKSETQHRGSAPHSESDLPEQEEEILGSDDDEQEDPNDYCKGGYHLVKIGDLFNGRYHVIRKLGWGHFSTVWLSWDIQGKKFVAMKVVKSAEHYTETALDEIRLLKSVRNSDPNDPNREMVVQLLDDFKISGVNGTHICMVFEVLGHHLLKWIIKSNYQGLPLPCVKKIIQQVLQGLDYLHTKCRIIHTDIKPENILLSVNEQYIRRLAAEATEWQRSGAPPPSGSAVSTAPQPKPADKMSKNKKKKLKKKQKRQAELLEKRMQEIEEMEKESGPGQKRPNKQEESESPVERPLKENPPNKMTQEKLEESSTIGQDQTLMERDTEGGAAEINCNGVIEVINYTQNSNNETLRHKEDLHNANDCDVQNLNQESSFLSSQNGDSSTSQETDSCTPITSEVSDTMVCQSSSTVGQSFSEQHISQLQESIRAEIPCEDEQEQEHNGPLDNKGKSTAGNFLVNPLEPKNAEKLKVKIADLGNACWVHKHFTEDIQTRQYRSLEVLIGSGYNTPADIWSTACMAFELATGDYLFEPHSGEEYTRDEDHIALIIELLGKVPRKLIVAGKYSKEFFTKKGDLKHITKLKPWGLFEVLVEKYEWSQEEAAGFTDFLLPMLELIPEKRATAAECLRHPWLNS
UniProt P54753, 34-998 limits assumed: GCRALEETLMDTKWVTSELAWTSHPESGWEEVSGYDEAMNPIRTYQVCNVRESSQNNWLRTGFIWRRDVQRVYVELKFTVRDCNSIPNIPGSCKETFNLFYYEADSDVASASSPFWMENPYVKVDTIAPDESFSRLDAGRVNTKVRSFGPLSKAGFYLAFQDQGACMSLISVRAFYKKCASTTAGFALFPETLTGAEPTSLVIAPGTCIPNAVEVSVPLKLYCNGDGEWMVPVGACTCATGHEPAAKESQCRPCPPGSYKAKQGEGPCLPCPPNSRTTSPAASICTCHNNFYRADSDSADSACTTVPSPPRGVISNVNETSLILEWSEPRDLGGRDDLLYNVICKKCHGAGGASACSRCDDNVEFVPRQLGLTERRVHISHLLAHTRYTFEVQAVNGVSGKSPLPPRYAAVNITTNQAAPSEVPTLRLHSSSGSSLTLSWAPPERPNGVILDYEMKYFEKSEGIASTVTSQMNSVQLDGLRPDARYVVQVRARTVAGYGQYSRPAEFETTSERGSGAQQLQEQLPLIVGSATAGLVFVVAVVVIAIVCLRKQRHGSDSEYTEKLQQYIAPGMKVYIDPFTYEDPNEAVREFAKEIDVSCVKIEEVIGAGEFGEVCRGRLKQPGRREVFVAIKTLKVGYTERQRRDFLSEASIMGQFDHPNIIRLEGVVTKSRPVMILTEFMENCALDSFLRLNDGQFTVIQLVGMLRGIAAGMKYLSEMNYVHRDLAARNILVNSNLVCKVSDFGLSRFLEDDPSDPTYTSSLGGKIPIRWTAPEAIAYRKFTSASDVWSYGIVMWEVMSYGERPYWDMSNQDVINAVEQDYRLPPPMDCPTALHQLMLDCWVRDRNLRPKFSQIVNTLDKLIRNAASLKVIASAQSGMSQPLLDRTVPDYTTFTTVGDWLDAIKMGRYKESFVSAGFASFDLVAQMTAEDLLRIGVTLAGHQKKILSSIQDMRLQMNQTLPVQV
UniProt Q8TDX7, whole entry: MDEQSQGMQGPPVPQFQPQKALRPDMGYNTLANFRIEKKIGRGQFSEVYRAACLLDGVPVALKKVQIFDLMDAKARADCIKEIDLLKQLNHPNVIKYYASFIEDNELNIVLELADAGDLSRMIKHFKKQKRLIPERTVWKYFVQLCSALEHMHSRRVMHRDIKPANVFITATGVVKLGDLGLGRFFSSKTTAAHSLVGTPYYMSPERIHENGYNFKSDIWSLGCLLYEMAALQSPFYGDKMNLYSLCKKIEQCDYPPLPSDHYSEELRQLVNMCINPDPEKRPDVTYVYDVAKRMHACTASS

In publication PMC12136037, “Type II kinase inhibitors that target Parkinson’s disease–associated LRRK2” (Science Advances, 2025):

What was measured:
Test in all cases: DSF 100 kinase selectivity screen;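 note: compound tested at 20 µM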
Type in all cases: binding
[1] = molecular target: ~100 representative kinases (Homo sapiens, UniProt Q13627); conditions: Protein DYRK1A; average of three replicates
[2] = molecular target: ~100 representative kinases (Homo sapiens, UniProt P48730); conditions: Protein CSNK1D; average of three replicates
[3] = molecular target: ~100 representative kinases (Homo sapiens, UniProt O96013); conditions: protein PAK4; average of three replicates
[4] = molecular target: ~100 representative kinases (Homo sapiens, UniProt Q13188); conditions: Protein STK3; DSF; average of three replicates
[5] = molecular target: ~100 representative kinases (Homo sapiens, UniProt Q02750); conditions: protein MAP2K1; average of three replicates
[6] = molecular target: ~100 representative kinases (Homo sapiens, UniProt P22830); conditions: protein FECH; average of three replicates
[7] = molecular target: ~100 representative kinases (Homo sapiens, UniProt O14936); conditions: Protein CASK; average of three replicates
[8] = molecular target: ~100 representative kinases (Homo sapiens, UniProt Q15418); conditions: Protein RPS6KA1; DSF; average of three replicates
[9] = molecular target: ~100 representative kinases (Homo sapiens, UniProt Q92630); conditions: Protein DYRK2; average of three replicates
[10] = molecular target: ~100 representative kinases (Homo sapiens, UniProt P49674); conditions: Protein CSNK1E; average of three replicates
[11] = molecular target: ~100 representative kinases (Homo sapiens, UniProt P33981); conditions: Protein TTK; DSF; average of three replicates
[12] = molecular target: ~100 representative kinases (Homo sapiens, UniProt Q96PY6); conditions: protein NEK1; average of three replicates
[13] = molecular target: ~100 representative kinases (Homo sapiens, UniProt P17948); conditions: protein FLT1; average of three replicates
[14] = molecular target: ~100 representative kinases (Homo sapiens, UniProt P21802); conditions: protein FGFR2; average of three replicates
[15] = molecular target: ~100 representative kinases (Homo sapiens, UniProt Q9NSY1); conditions: Protein BMP2K; average of three replicates
[16] = molecular target: ~100 representative kinases (Homo sapiens, UniProt P53355); conditions: Protein DAPK1; average of three replicates
[17] = molecular target: ~100 representative kinases (Homo sapiens, UniProt P54762); conditions: Protein EPHB1; average of three replicates
[18] = molecular target: ~100 representative kinases (Homo sapiens, UniProt Q8TF76); conditions: protein GSG2; average of three replicates
[19] = molecular target: ~100 representative kinases (Homo sapiens, UniProt O14965); conditions: Protein STK6; DSF; average of three replicates
[20] = molecular target: ~100 representative kinases (Homo sapiens, UniProt P12931); conditions: Protein SRC; DSF; average of three replicates
[21] = molecular target: ~100 representative kinases (Homo sapiens, UniProt P55201); conditions: Protein BRPF1; average of three replicates
[22] = molecular target: ~100 representative kinases (Homo sapiens, UniProt P34947); conditions: protein GPRK5; average of three replicates
[23] = molecular target: ~100 representative kinases (Homo sapiens, UniProt P29317); conditions: Protein EPHA2; average of three replicates
[24] = molecular target: ~100 representative kinases (Homo sapiens, UniProt Q99640); conditions: protein PKMYT1; average of three replicates
[25] = molecular target: ~100 representative kinases (Homo sapiens, UniProt Q9Y2H1); conditions: Protein STK38L; DSF; average of three replicates
[26] = molecular target: ~100 representative kinases (Homo sapiens, UniProt P49761); conditions: Protein CLK3; average of three replicates
[27] = molecular target: ~100 representative kinases (Homo sapiens, UniProt Q8IU85); conditions: Protein CAMK1D; average of three replicates
[28] = molecular target: ~100 representative kinases (Homo sapiens, UniProt Q96SB4); conditions: Protein SRPK1; DSF; average of three replicates
[29] = molecular target: ~100 representative kinases (Homo sapiens, UniProt P45985); conditions: protein MAP2K4; average of three replicates
[30] = molecular target: ~100 representative kinases (Homo sapiens, UniProt Q9H2G2); conditions: Protein SLK; DSF; average of three replicates
[31] = molecular target: ~100 representative kinases (Homo sapiens, UniProt Q13153); conditions: protein PAK1; average of three replicates
[32] = molecular target: ~100 representative kinases (Homo sapiens, UniProt P54753); conditions: Protein EPHB3A; average of three replicates
[33] = molecular target: ~100 representative kinases (Homo sapiens, UniProt Q9UEW8); conditions: Protein STK39; DSF; average of three replicates
[34] = molecular target: ~100 representative kinases (Homo sapiens, UniProt P45984); conditions: protein MAPK9; average of three replicates
[35] = molecular target: ~100 representative kinases (Homo sapiens, UniProt Q8TDX7); conditions: protein NEK7; average of three replicates

SMILES: Cc1ccc(C(=O)Nc2ccc(CN3CCN(C)CC3)c(C(F)(F)F)c2)cc1C#Cc1ccc2cn[nH]c2c1
- dTm [1]: -5.87 K
- dTm [2]: 1.68 K
- dTm [3]: -3.32 K
- dTm [4]: 5.01 K
- dTm [5]: 1.01 K
- dTm [6]: -5.80 K
- dTm [7]: -0.51 K
- dTm [8]: 5.81 K
- dTm [9]: 2.22 K
- dTm [10]: 2.26 K
- dTm [11]: -2.93 K
- dTm [12]: 0.73 K
- dTm [13]: 7.43 K
- dTm [14]: -0.14 K
- dTm [15]: 3.84 K
- dTm [16]: -1.06 K
- dTm [17]: 5.82 K
- dTm [18]: 1.11 K
- dTm [19]: 8.48 K
- dTm [20]: -0.06 K
- dTm [21]: -7.02 K
- dTm [22]: -5.79 K
- dTm [23]: 9.80 K
- dTm [24]: -7.35 K
- dTm [25]: -2.84 K
- dTm [26]: 1.91 K
- dTm [27]: 5.08 K
- dTm [28]: 9.31 K
- dTm [29]: 2.17 K
- dTm [30]: 8.39 K
- dTm [31]: -0.45 K
- dTm [32]: 7.00 K
- dTm [33]: 3.55 K
- dTm [34]: 8.80 K
- dTm [35]: -1.99 K
